From patent US20090202660A1, “Agents and Methods for Osteogenic Oxysterols Inhibition of Oxidative Stress on Osteogenic Cellular Differentiation” (The Regents of the University of California, priority 2005, published 2009)

System: M2 cells
Test: Oxidative stress (XXO or MM-LDL) inhibition of osteoblastic differentiation of M2 cells
Assay type: cell-based, mouse
Conditions: pretreatment 48 hours, 250 ng/ml; data not shown

B1: rhBMP2: recombinant human BMP2 from R&D Systems (protein, UniProt P12643 283-396, looked up)
Bone morphogenetic protein 2: QAKHKQRKRLKSSCKRHPLYVDFSDVGWNDWIVAPPGYHAFYCHGECPFPLADHLNSTNHAIVQTLVNSVNSKIPKACCVPTELSAISMLYLDENEKVVLKNYQDMVVEGCGCR
protection of osteogenic differentiation from oxidative stress by pretreatment: protected from the adverse effects of oxidative stress
